Results reported in patent publication US10053431B2, “Tetrahydro-benzodiazepinones” (priority 2013, dated 2018).
Where a name gives a salt, the structure may show the parent alone. Read-outs that look alike come from different tables or passages of the source.

The chains behind the UniProt entries cited, without tags or fusion partners. A line that says so, or that is headed by a name, gives the form on record, which may keep a tag or linker. Residues count along the entry.
UniProt P98170, 241-356 with tags or gaps limits assumed: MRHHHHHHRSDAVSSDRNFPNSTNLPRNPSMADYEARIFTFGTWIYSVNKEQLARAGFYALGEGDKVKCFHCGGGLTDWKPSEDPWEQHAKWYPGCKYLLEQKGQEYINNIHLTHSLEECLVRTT
UniProt P98170, 124-240 with tags or gaps C202A/C213G limits assumed: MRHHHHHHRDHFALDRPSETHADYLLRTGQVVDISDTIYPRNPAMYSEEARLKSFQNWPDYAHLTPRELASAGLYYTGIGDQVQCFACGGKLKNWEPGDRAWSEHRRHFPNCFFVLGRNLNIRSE

Experiments:
BIR3 domain of XIAP = BIR3 domain of XIAP (Homo sapiens (Human), UniProt P98170); test: TR-FRET assay for BIR3 (inhibition of binding of XIAP BIR3 domain to SMAC-derived Peptide A); settings: read-out: IC50 BIR3, 6x His-tagged BIR3 domain (aa 241-356 of XIAP) 10 nM, Peptide A 20 nM, TR-FRET
BIR2 domain of XIAP = BIR2 domain of XIAP (Homo sapiens (Human), UniProt P98170, C202A/C213G); test: TR-FRET assay for BIR2 (inhibition of binding of XIAP BIR2 domain to SMAC-derived Peptide A); settings: 6x His-tagged BIR2 domain (aa 124-240 of XIAP) 10 nM, Peptide A 20 nM

IC50 (BIR3 domain of XIAP; hydrochloride)	IC50 (BIR2 domain of XIAP)	IC50 (BIR3 domain of XIAP)	Compound
21700 nM	57.5 nM		CN[C@@H](C)C(=O)N[C@H]1CN(C(=O)c2cccc(C(C)O)c2)c2ccccc2N(Cc2c(C)ccc3ccccc23)C1=O (stereo partly drawn) [Example 119, (2S)-N-[(3S)-1-[3-(1-hydroxyethyl)benzoyl]-5-[(2-methylnaphthalen-1-yl)methyl]-4-oxo-2,3-dihydro-1,5-benzodiazepin-3-yl]-2-(methylamino)propanamide;hydrochloride]
	13.2 nM	26400 nM	CN[C@@H](C)C(=O)N[C@H]1CN(C(=O)c2ccc(N)cc2)c2cc(Cl)ccc2N(Cc2c(OC)ccc3ccccc23)C1=O [Example 122, (S)-N-((S)-5-(4-aminobenzoyl)-7-chloro-1-((2-methoxynaphthalen-1-yl)methyl)-2-oxo-2,3,4,5-tetrahydro-1H-benzo[b][1,4]diazepin-3-yl)-2-(methylamino)propanamide hydrochloride]
	5.68 nM	13100 nM	CN[C@@H](C)C(=O)N[C@H]1CN(C(=O)c2ccc(N)cc2)c2cc(Cl)ccc2N(Cc2c(OC)ccc3cc(Br)ccc23)C1=O [Example 124, (S)-N-((S)-5-(4-aminobenzoyl)-1-((6-bromo-2-methoxynaphthalen-1-yl)methyl)-7-chloro-2-oxo-2,3,4,5-tetrahydro-1H-benzo[b][1,4]diazepin-3-yl)-2-(methylamino)propanamide hydrochloride]
	9.22 nM	26700 nM	CN[C@@H](C)C(=O)N[C@H]1CN(C(=O)c2ccc(C#N)cc2)c2cc(Cl)ccc2N(Cc2c(OC)ccc3c(Br)cccc23)C1=O [Example 127, (S)-N-((S)-1-((5-bromo-2-methoxynaphthalen-1-yl)methyl)-7-chloro-5-(4-cyanobenzoyl)-2-oxo-2,3,4,5-tetrahydro-1H-benzo[b][1,4]diazepin-3-yl)-2-(methylamino)propanamide hydrochloride]
	11.2 nM	29800 nM	CN[C@@H](C)C(=O)N[C@H]1CN(C(=O)c2ccc(C#N)cc2)c2cc(Cl)ccc2N(Cc2c(OC)ccc3cc(Br)ccc23)C1=O [Example 131, (S)-N-((S)-1-((6-bromo-2-methoxynaphthalen-1-yl)methyl)-7-chloro-5-(4-cyanobenzoyl)-2-oxo-2,3 tetrahydro-1H-benzo[b][1,4]diazepin-yl)-2-(methylamino)propanamide hydrochloride]
	186 nM	41900 nM	CN[C@@H](C)C(=O)N[C@H]1CN(C(=O)c2ccc(F)cc2)c2cc(Cl)ccc2N(Cc2c(OCC(F)(F)F)ccc3cc(Br)ccc23)C1=O [Example 136, (S)-N-((S)-1-((6-bromo-2-(2,2,2-trifluoroethoxy)naphthalen-1-yl)methyl)-7-chloro-5-(4-fluorobenzoyl)-2-oxo-2,3,4,5-tetrahydro-1H-benzo[b][1,4]diazepin-3-yl)-2-(methylamino)propanamide hydrochloride]
	49.7 nM	48800 nM	CN[C@@H](C)C(=O)N[C@H]1CN(C(=O)c2ccc(F)cc2)c2cc(Cl)ccc2N(Cc2c(OC(F)F)ccc3ccccc23)C1=O [Example 140, (S)-N-((S)-7-chloro-1-((2-(difluoromethoxy)naphthalen-1-yl)methyl)-5-(4-fluorobenzoyl)-2-oxo-2,3,4,5-tetrahydro-1H-benzo[b][1,4]diazepin-3-yl)-2-(methylamino)propanamide hydrochloride]
	39.3 nM	48300 nM	CN[C@@H](C)C(=O)N[C@H]1CN(C(=O)c2ccc3[nH]ncc3c2)c2ccccc2N(Cc2c(C)ccc3ccccc23)C1=O [Example 141, (25)-N-[(3S)-1-(1H-indazole-5-carbonyl)-5-[(2-methylnaphthalen-1-yl)methyl]-4-oxo-2,3-dihydro-1,5-benzodiazepin-3-yl]-2-(methylamino)propanamide]
	32.4 nM	47200 nM	CN[C@@H](C)C(=O)N[C@H]1CN(C(=O)c2ccc(C#N)cc2)c2cc(C#N)ccc2N(Cc2c(OC(F)F)ccc3ccccc23)C1=O [Example 142, (S)-N-((S)-7-cyano-5-(4-cyanobenzoyl)-1-((2-(difluoromethoxy)naphthalen-1-yl)methyl)-2-oxo-2,3,4,5-tetrahydro-1H-benzo[b][1,4]diazepin-3-yl)-2-(methylamino)propanamide hydrochloride]
	6.15 nM	23800 nM	CN[C@@H](C)C(=O)N[C@H]1CN(C(=O)c2ccc(C#N)cc2)c2cc(C#N)ccc2N(Cc2c(OC)ccc3cc(Br)ccc23)C1=O [Example 144, (S)-N-((S)-1-((6-bromo-2-methoxynaphthalen-1-yl)methyl)-7-cyano-5-(4-cyanobenzoyl)-2-oxo-2,3,4,5-tetrahydro-1H-benzo[b][1,4]diazepin-3-yl)-2-(methylamino)propanamide hydrochloride]
	26.5 nM	> 54800 nM	CN[C@@H](C)C(=O)N[C@H]1CN(C(=O)c2ccc3[nH]ccc3c2)c2ccccc2N(Cc2c(C)ccc3ccccc23)C1=O [Example 145, (25)-N-[(3S)-1-(1H-indole-5-carbonyl)-5-[(2-methylnaphthalen-1-yl)methyl]-4-oxo-2,3-dihydro-1,5-benzodiazepin-3-yl]-2-(melhylamino)propanamide]
	16.7 nM	> 54800 nM	CN[C@@H](C)C(=O)N[C@H]1CN(C(=O)c2cccc3[nH]ccc23)c2ccccc2N(Cc2c(C)ccc3ccccc23)C1=O [Example 146, (2S)-N-[(3S)-1-(1H-indole-4-carbonyl)-5-[(2-methylnaphthalen-1-yl)methyl]-4-oxo-2,3-dihydro-1,5-benzodiazepin-3-yl]-2-(methylamino)propanamide]
	55.1 nM	> 54800 nM	CN[C@@H](C)C(=O)N[C@H]1CN(C(=O)c2cccc3[nH]ncc23)c2ccccc2N(Cc2c(C)ccc3ccccc23)C1=O [Example 147, (2S)-N-[(3S)-1-(1H-indazole-4-carbonyl)-5-[(2-methylnaphthalen-1-yl)methyl]-4-oxo-2,3-dihydro-1,5-benzodiazepin-3-yl]-2-(methylamino)propanamide]
	9.06 nM	12300 nM	CN[C@@H](C)C(=O)N[C@H]1CN(C(=O)c2ccc(F)cc2)c2cc(C#N)ccc2N(Cc2c(OC)ccc3c(Br)cccc23)C1=O [Example 150, (S)-N-((S)-1-((5-bromo-2-methoxynaphthalen-1-yl)methyl)-7-cyano-5-(4-fluorobenzoyl)-2-oxo-2,3,4,5-tetrahydro-1H-benzo[b][1,4]diazepin-3-yl)-2-(methylamino)propanamide hydrochloride]
	32.6 nM	51700 nM	CN[C@@H](C)C(=O)N[C@H]1CN(C(=O)c2ccc3cc[nH]c3c2)c2ccccc2N(Cc2c(C)ccc3ccccc23)C1=O [Example 152, (2S)-N-[(3S)-1-(1H-indole-6-carbonyl)-5-[(2-methylnaphthalen-1-yl)methyl]-4-oxo-2,3-dihydro-1,5-benzodiazepin-3-yl]-2-(methylamino)propanamide]
	11.5 nM	19200 nM	CN[C@@H](C)C(=O)N[C@H]1CN(C(=O)c2ccc(F)cc2)c2cc(C#N)ccc2N(Cc2c(OC)ccc3cc(Br)ccc23)C1=O [Example 154, (S)-N-((S)-1-((6-bromo-2-methoxynaphthalen-1-yl)methyl)-7-cyano-5-(4-fluorobenzoyl)-2-oxo-2,3,4,5-tetrahydro-1H-benzo[b][1,4]diazepin-3-yl)-2-(methylamino)propanamide hydrochloride]
